Ab-14 light chain CDR variants: yeast mating affinities

Source: Engelhart et al. 2022 (doi:10.1038/s41597-022-01779-4), MIT Lincoln Laboratory and A-Alpha Bio; data file from the FLAb repository.

The target is the same throughout: PDVDLGDISGINAS, from the HR2 region of SARS-CoV-2 spike.

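The starting antibody came from a phage panning campaign against this peptide. Library AAYL50 holds single substitutions and randomly drawn double and triple substitutions in the CDRs. AlphaSeq pools MATa yeast showing the antibodies with MATalpha yeast showing the peptide. Mating (16 h, 30 °C) was followed by selection of diploids and sequencing of their barcodes. Scores were corrected for input abundance and mapped to Kd with protein pairs of known affinity run in the same pool. Mating was done three times.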

Parent: Ab-14, a human scFv built as VH, three GGGGS repeats, VL. Only the CDRs of the light chain vary.
VH: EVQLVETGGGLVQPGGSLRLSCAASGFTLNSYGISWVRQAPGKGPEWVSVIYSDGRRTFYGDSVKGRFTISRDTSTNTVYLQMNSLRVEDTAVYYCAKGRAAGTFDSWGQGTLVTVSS
VL: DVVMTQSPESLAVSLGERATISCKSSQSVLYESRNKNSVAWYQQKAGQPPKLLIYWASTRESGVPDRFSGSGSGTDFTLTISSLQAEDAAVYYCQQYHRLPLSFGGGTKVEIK

Each variant is given by its three light chain CDRs, as the data file delimits them; those of the parent are KSSQSVLYESRNKNSVA, WASTRES, QQYHRLPLS. Scale: log10 of Kd in nM, estimated from mating counts; low values are strong binders. An entry "ND" has no value in the source: the pair was not observed among the diploids in that replicate. This suggests poor binding but is not conclusive. In this assay the parent's reference entry averaged 0.65; its copy inside this library read 1.68.

CDR-L1	CDR-L2	CDR-L3	log10 Kd (nM) by replicate	signal with controls
KSSQDVLYESRNKNSVA	WAATRES	SQYHRLPLS	3.35 2.64 2.77	3/9 (3.96)
KSSRSVLYESRNKNSDA	WASHRES	QQYHRLPLS	ND ND ND	3/9 (4.49)
KSSQSVLYESRYKNSVA	WASTREV	QQYHRLPLS	1.91 1.93 2.36	1/9 (4.30)
KSSQSVLYESWNKNSVA	WASTRES	QQYARLPLS	0.98 1.18 1.34	5/9 (4.56)
KSSQSVLYESWNKNSVA	WASTRES	PQYHRLPFS	ND ND ND	0/9
KSSQQVLYESRNKNSVA	WASTREN	QQYHRLYLS	ND 3.63 ND	0/9
KSSQSPLYESRNANSVA	WASCRES	QQYHRLPLS	2.64 2.88 2.74	3/9 (4.98)
KSSQSVLYESRNKNSVN	KASERES	QQYHRLPLS	ND ND ND	0/9
KSSQSVLYESRNKNWVA	WIETRES	QQYHRLPLS	ND ND ND	1/9 (4.45)
KSSQQVLYESRNKNSLA	WMSTRES	QQYHRLPLS	ND ND ND	1/9 (4.71)
KSSQSTLYESRNNNSVA	WASCRES	QQYHRLPLS	1.72 1.57 2.03	1/9 (4.39)
KSSASVLYESRNSNSVA	WASTRES	LQYHRLPLS	0.76 0.80 0.60	2/9 (4.46)
KSTQSVLYESRNKNSVA	WASWRES	QQDHRLPLS	ND 3.35 3.26	2/9 (4.45)
KSSQSVLYWSRNKNSVA	WASTRES	QQYHRMPLS	2.68 2.42 2.63	7/9 (4.08)
KSSQSVLYESRNKNRVA	WASTREC	QQYHRNPLS	ND ND ND	1/9 (3.26)
KASQSVLYGSRNKNSVA	WASYRES	QQYHRLPLS	0.97 1.13 1.01	1/9 (4.14)
KSSQSVLYESRNKNMTA	WASTRES	QQYHRNPLS	ND 3.22 ND	3/9 (4.23)
KSSDSHHYESRNKNSVA	WASTRES	QQYHRLPLS	5.53 5.17 ND	5/9 (4.71)
KSSQSVDYESRNKNSVA	WASTRES	QQYHGLQLS	ND ND ND	0/9
KSSQSVLYECRNVNSVA	WASTRSS	QQYHRLPLS	ND ND 2.02	0/9
KSSQSVLYESRNKNSRA	WASTRES	QQYCRLPLS	ND 4.10 4.73	3/9 (4.01)
KSSKSVLYESRNKNSLA	WVSTRES	QQYHRLPLS	ND 3.78 ND	1/9 (2.51)
KSSQSVLYESRNKNSVA	WATTRES	QQYHRLPLS	0.94 1.05 0.99	1/9 (6.03)
KSSQSVLYESRVKNVVA	WASTRES	QQYHRLPLS	ND ND ND	1/9 (2.86)
KSSMSVLYESRNKQSVA	WASTRES	QQMHRLPLS	ND 3.10 ND	2/9 (4.25)
KSSQSVLYESRNKNSVA	WASTRES	QQYHRPPSC	ND 4.16 ND	0/9
KSSQSVLYESRNFFSVA	WASTRES	QIYHRLPLS	4.02 3.33 ND	0/9
KISQSVLNESRNKNSVA	WASTREG	QQYHRLPLS	0.25 0.59 0.43	2/9 (3.96)
KSSQSVLYESRNKNSQA	WASTRES	QQYHSIPLS	ND ND 3.19	2/9 (3.18)
KSSQSVLYESRNKNSVE	WASTRES	QQYCRCPLS	3.83 5.23 ND	2/9 (3.98)
KSSQSVLYESPNKNSVA	WASTRES	QDYHRHPLS	ND 3.98 ND	0/9
KSSQWVLYYSRNKNSVA	WASTRES	QQYHRHPLS	ND ND ND	0/9
KSSQSVLYEKRNKMSVA	WASTRES	QQYHRLDLS	4.38 3.69 4.13	4/9 (4.12)
KSSQSVLYESRNKNSMA	WASTRES	RQYHRLLLS	ND 3.56 ND	6/9 (4.21)
KSSQSVLYECRNKNPVA	WASTRES	QQYHRPPLS	ND 3.13 ND	2/9 (3.81)
KSSQSVLYESRNKNSVA	WASTAET	SQYHRLPLS	ND ND ND	1/9 (4.07)
KSSQFVLYESRNKNHVA	WARTRES	QQYHRLPLS	ND ND ND	3/9 (4.34)
KCSQSVLYESRNKNAVA	WASTRES	QQSHRLPLS	0.59 0.54 0.52	2/9 (4.52)
KSSQSVLYESRNKESVA	WKLTRES	QQYHRLPLS	ND ND 4.50	1/9 (4.03)
KSSQSVLYESRNKNSVP	WASTRCS	QQSHRLPLS	4.29 ND ND	1/9 (4.37)
KSSQSVLYESRYKNSDA	WASTRES	QQYHVLPLS	ND ND ND	4/9 (4.95)
KSSESVLYESDNKNSVA	WASTRES	QWYHRLPLS	4.76 3.99 3.90	2/9 (4.47)
KSSTSVLYHSRNKNWVA	WASTRES	QQYHRLPLS	ND ND ND	0/9
KSSQSALYESRNKNSVA	WASTREK	QQYHRLCLS	1.55 1.57 1.69	1/9 (4.46)
KSSQIVLYASRNKNSVA	WAETRES	QQYHRLPLS	4.98 ND 3.84	8/9 (4.92)
KSSQSWLYSSRNKNSVA	WASTRGS	QQYHRLPLS	1.34 1.47 1.49	1/9 (4.47)
KSSQLVLYESRNKNSVA	WASTRES	QYYHRLPKS	ND ND ND	0/9
KSSQSVTYESRNKNSVA	AASTRES	QQYCRLPLS	0.21 0.23 0.16	1/9 (4.12)
KSSQMVLHESRNKNSVA	WISTRES	QQYHRLPLS	ND ND ND	0/9
YSSQSVLYESRNKASVA	WASTRES	QQVHRLPLS	ND ND 3.85	2/9 (4.00)
KSSQSVLYESRNKNSVA	WAKTRES	VQMHRLPLS	ND ND 3.50	0/9

Excerpt, the final 7 entries:

CDR-L1	CDR-L2	CDR-L3	log10 Kd (nM) by replicate	signal with controls
KSSQIVLYASRNKNSVA	WAETRES	QQYHRLPLS	4.98 ND 3.84	8/9 (4.92)
KSSQSWLYSSRNKNSVA	WASTRGS	QQYHRLPLS	1.34 1.47 1.49	1/9 (4.47)
KSSQLVLYESRNKNSVA	WASTRES	QYYHRLPKS	ND ND ND	0/9
KSSQSVTYESRNKNSVA	AASTRES	QQYCRLPLS	0.21 0.23 0.16	1/9 (4.12)
KSSQMVLHESRNKNSVA	WISTRES	QQYHRLPLS	ND ND ND	0/9
YSSQSVLYESRNKASVA	WASTRES	QQVHRLPLS	ND ND 3.85	2/9 (4.00)
KSSQSVLYESRNKNSVA	WAKTRES	VQMHRLPLS	ND ND 3.50	0/9

Empty control strains, which show no peptide, gave a signal in 18% of pairings with library AAYL50; the median was 4.19 and 95% of these signals were weaker than 2.99. No background was subtracted. Also given: how often the same scFv was detected with the empty control strains, with their mean in brackets.